Experimental data taken from PubChem BioAssay AID540295 (The Scripps Research Institute Molecular Screening Center, 2011).
This is a selection; strong and weak results do not stand in their true shares. The source made the active and inactive calls.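 How the source made its calls: active means inhibition above its plate's cutoff, the mean of tested wells on that plate plus 3 SD (cut at about 29% in these data); inactive means the rest.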

By UniProt entry, the sequences of proteins in these tests, tags left out.
UniProt P32245, whole entry: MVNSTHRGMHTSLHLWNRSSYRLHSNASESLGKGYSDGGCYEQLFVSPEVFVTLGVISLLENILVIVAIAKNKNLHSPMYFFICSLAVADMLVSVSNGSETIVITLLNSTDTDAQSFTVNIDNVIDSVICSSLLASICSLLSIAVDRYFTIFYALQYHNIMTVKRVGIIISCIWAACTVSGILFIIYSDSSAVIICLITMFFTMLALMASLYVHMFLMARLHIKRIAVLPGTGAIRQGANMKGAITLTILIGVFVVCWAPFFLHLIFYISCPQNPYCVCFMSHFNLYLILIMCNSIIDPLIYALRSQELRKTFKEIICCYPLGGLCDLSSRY

What follows are compounds tested against Melanocortin receptor 4 (Homo sapiens) (UniProt P32245) (assay: MC4R antagonists of cAMP signaling, primary screen, cell-based, TR-FRET, antagonist arm of biased-ligand search (AID 540295;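 further: 0% = Melanotan II alone and 100% = Melanotan II plus saturating MCL0020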)). Conditions: MC4R-expressing cells, MTII-stimulated cAMP, LANCE TR-FRET; at 6.5 µM; hits give high values.

SMILES	inhibition
CCC(=O)N(c1ccccc1)C1(COC)CCN(CCn2nnn(CC)c2=O)CC1	inactive: 4.86%
CCC(=O)N(c1ccccc1)C1(COC)CCN(CCc2cccs2)CC1	inactive: 4.73%
